# Reference: patent US12357591B2, “Sublingual epinephrine compositions including pH-modifying excipients and penetration enhancers and methods for use thereof” (Nova Southeastern University, priority 2018, dated 2025)
# Experimental: Frozen pig's heads were obtained from local abattoir. Then, they were defrosted at room temperature. The porcine mucosa were excised by dissecting the sublingual mucosa and removing the underlying connective tissue using a scalpel and fine tweezers using established surgical techniques. The excised mucosa were frozen on aluminum foil at −20° C. until used (<4 weeks).
# The sublingual mucosa (floor of the mouth) excised from pigs were used as the diffusion membranes. Mcvilian buffer at various pH was used in the donor cell as a diffusion medium.
# Before each experiment, the mucosal membranes were defrosted at room temperature and mounted between the donor and receptor chambers and clamped using a metal clamp. The receptor chamber that has a magnetic stirrer was filled with the diffusion medium before mounting the membranes and air bubbles were removed after mounting the membranes and before the experiment. The water bath was set at 37° C. for the circulating water in the jacketed Franz Cells. The mounted membranes were equilibrated with the diffusion medium for 30 min from both sides before the experiment and were checked for any leaks.
# Aliquots were withdrawn from the receptor chamber using 6 inch-long needles (Popper & Sons. Inc, New Hyde Park, NYC) and 1 mL syringes at 5, 10, 15, 20, 30, 45, 60, 75, and 90 min. The withdrawn volumes were replaced with fresh medium.
# Samples were transferred to HPLC vials for HPLC analysis according to USP Method.
compound,measurement,setting,value
"CNC[C@H](O)c1ccc(O)c(O)c1 [Epi, Epinephrine]",cumulative permeated epinephrine (20 mg) per area,"pH 5, 5 min",33.8 ± 1.8 μg/cm^2
same,cumulative permeated epinephrine (20 mg) per area,"pH 5, 10 min",37.5 ± 0.6 μg/cm^2
same,cumulative permeated epinephrine (20 mg) per area,"pH 6, 20 min",15.7 ± 3.3 μg/cm^2
same,percentage of diffused epinephrine (%),"pH 8, 30 min",15.2 ± 0.23%

# Where two headings read alike, the source gives them in different places.
